Assay results published in PubChem BioAssay (NCI).
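Cultured in 96-well plates, cells were exposed to test compound for 48 hours across five concentrations. TGI: total growth inhibition.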

How the values were obtained:
Experiment in all cases: NCI tumour cell line growth inhibition, 48 h
U251 CNS = system: U251 CNS
SK-MEL-2 melanoma = system: SK-MEL-2 melanoma
T-47D breast = system: T-47D breast
SK-MEL-28 melanoma = system: SK-MEL-28 melanoma
OVCAR-3 ovarian = system: OVCAR-3 ovarian
MALME-3M melanoma = system: MALME-3M melanoma
UACC-62 melanoma = system: UACC-62 melanoma
OVCAR-4 ovarian = system: OVCAR-4 ovarian
SK-OV-3 ovarian = system: SK-OV-3 ovarian
HL-60(TB) leukemia = system: HL-60(TB) leukemia
MDA-N = system: MDA-N
PC-3 prostate = system: PC-3 prostate
MDA-MB-231 breast = system: MDA-MB-231 breast
HT29 colon = system: HT29 colon
OVCAR-5 ovarian = system: OVCAR-5 ovarian
HCT-15 colon = system: HCT-15 colon
EKVX NSCLC = system: EKVX NSCLC
SK-MEL-5 melanoma = system: SK-MEL-5 melanoma
NCI-H522 lung = system: NCI-H522 lung
SN12C renal = system: SN12C renal
COLO 205 colon = system: COLO 205 colon
M14 melanoma = system: M14 melanoma
SF-268 CNS = system: SF-268 CNS
HS 578T breast = system: HS 578T breast
HCT-116 colon = system: HCT-116 colon
OVCAR-8 ovarian = system: OVCAR-8 ovarian
K-562 leukemia = system: K-562 leukemia
HOP-92 NSCLC = system: HOP-92 NSCLC
MDA-MB-435 = system: MDA-MB-435
DU-145 prostate = system: DU-145 prostate
CAKI-1 renal = system: CAKI-1 renal
HOP-62 NSCLC = system: HOP-62 NSCLC
RPMI-8226 leukemia = system: RPMI-8226 leukemia
SF-539 CNS = system: SF-539 CNS
MOLT-4 leukemia = system: MOLT-4 leukemia
NCI-H23 lung = system: NCI-H23 lung
A549 NSCLC = system: A549 NSCLC
SW-620 colon = system: SW-620 colon
SNB-19 CNS = system: SNB-19 CNS
UACC-257 melanoma = system: UACC-257 melanoma
UO-31 renal = system: UO-31 renal
ACHN renal = system: ACHN renal
BT-549 breast = system: BT-549 breast
NCI/ADR-RES ovarian = system: NCI/ADR-RES ovarian
786-0 renal = system: 786-0 renal
A498 renal = system: A498 renal
TK-10 renal = system: TK-10 renal
KM12 colon = system: KM12 colon
SR leukemia = system: SR leukemia
SF-295 CNS = system: SF-295 CNS
IGROV1 ovarian = system: IGROV1 ovarian
NCI-H226 lung = system: NCI-H226 lung

Measured: TGI

CN(C(=O)[C@@H](N)c1ccccc1)[C@H]1CCCC[C@@H]1N1CCCC1
> 100 µM: all assays above
